Experimental data published in patent US20260041680A1, “METHODS OF TREATING CANCER WITH LONG-ACTING TOPOISOMERASE I INHIBITOR” (priority 2022, published 2026).

Tests used:
[1] = test system: HT-29 human colon cancer xenograft; test: HT-29 human colon cancer xenograft, antitumor activity and tolerability; format: in vivo, nude rat; conditions: PLX038 50, 100 or 200 mg/kg IV once a week for 2 weeks
[2] = for tolerability: Grade 3 diarrhea
[3] = PLX038 Q3W; for SN-38 AUC (AUC0-∞): calculated from the models; for Cmax: read-out: SN-38 Cmax
[4] = mice
[5] = humans
[6] = total SN-38 14 mg/m^2/cycle, free SN-38 delivered 4 mg/m^2/cycle
[7] = total SN-38 21 mg/m^2/cycle, free SN-38 delivered 6 mg/m^2/cycle
[8] = total SN-38 31 mg/m^2/cycle, free SN-38 delivered 9 mg/m^2/cycle
[9] = total SN-38 46 mg/m^2/cycle, free SN-38 delivered 13 mg/m^2/cycle
[10] = total SN-38 62 mg/m^2/cycle, free SN-38 delivered 17 mg/m^2/cycle
[11] = total SN-38 107 mg/m^2/cycle, free SN-38 delivered 32 mg/m^2/cycle

## O-[7-(tetra-polyethylene glycol ether)-carboxamido-1-cyano-2-heptyl]-N-(10′-methoxy-7′-ethyl-camptothecin)-N-[4′-(diethylcarbamoyl)phenyl)] carbamate [PLX038]
[1]
  body weight loss: 2%
  diarrhea: no diarrhea
[2]; PLX038 every 3 weeks, patients
  maximal administered dose (MAD): 3060 mg/m^2
[2]; Phase 1, thus far
  gastrointestinal (GI) toxicity: neither expected or observed
[2]; intermediate dose 2600 mg/m^2
  tolerability: not tolerated
[2]; intermediate dose 2800 mg/m^2
  tolerability: not tolerated
[3]; total SN-38 14 mg/m^2/cycle
  SN-38 AUC (AUC0-∞): 1,660 ± 560 (4) nM · h
[3]; [6]
  SN-38 t1/2: 97 ± 11.4 (4) h
  Cmax: 22 ± 6.2 nM
[3]; total SN-38 21 mg/m^2/cycle
  SN-38 AUC (AUC0-∞): 1,756 ± 1071 (2) nM · h
[3]; [7]
  SN-38 t1/2: 91 ± 3.7 (2) h
  Cmax: 14 ± 4.7 nM
[3]; total SN-38 31 mg/m^2/cycle
  SN-38 AUC (AUC0-∞): 2,513 (1) nM · h
[3]; [8]
  SN-38 t1/2: 90 (1) h
  Cmax: 24 ± 13 nM
[3]; total SN-38 46 mg/m^2/cycle
  SN-38 AUC (AUC0-∞): 4,000 nM · h
[3]; [9]
  SN-38 t1/2: 85 h
  Cmax: 30 nM
[3]; total SN-38 62 mg/m^2/cycle
  SN-38 AUC (AUC0-∞): 6,126 nM · h
[3]; [10]
  SN-38 t1/2: ~100 h
  Cmax: 46 nM
[3]; total SN-38 82 mg/m^2/cycle (2,300 mg/m^2 PLX038: simulated)
  SN-38 AUC (AUC0-∞): 11,356 nM · h
[3]; total SN-38 82 mg/m^2/cycle, free SN-38 delivered 23 mg/m^2/cycle (2,300 mg/m^2 PLX038: simulated from lower doses assuming t1/2 = 100 h)
  SN-38 t1/2: ~100 h
[3]; total SN-38 107 mg/m^2/cycle
  SN-38 AUC (AUC0-∞): 17,820 ± 2550 ^ nM · h
[3]; [11]
  SN-38 t1/2: 118 ± 31 h
  Cmax: 186 ± 88 nM
[3]; total SN-38 82 mg/m^2/cycle, free SN-38 delivered 23 mg/m^2/cycle (2,300 mg/m^2 PLX038: simulated from lower doses, dose linearity of Cmax)
  Cmax: 68 nM
[4]
  elimination half-life: ~20 h
[5]
  elimination half-life: ~120 h
Xenograft tumors; compared to normal tissues
  efflux from xenograft tumors: extremely slow
Xenograft tumors; rodent models
  tmax for tumor accumulation: ~100 h
SN-38 from PLX038, evident from low SN-38G/SN-38
  liver/GI exposure of SN-38: very low
At gap of 48 hr
  systemic SN-38 as % of Cmax: 76%
At gap of 120 h (5 days)
  systemic SN-38 as % of Cmax: 50%
  systemic SN-38 concentration: ~27 nM
At the dose of PLX038 used in Schedule 1
  SN-38G level: barely detectable
Changing from a 2- to 5 day gap schedule
  reduction of GI exposure to SN-38: ~2 fold
Changing from a 2 to 5 day gap schedule
  reduction of systemic SN-38 level at time PARP inhibitor is introduced: ~1.5 fold
human
  t1/2 of SN-38G from PLX038: 120 h
read-out: systemic SN-38 Cmax, human, Schedule 1 PLX038 dose
  Cmax: ~55 nM

Like-named read-outs stand apart in the source and are kept apart here.
